According to US9803245B2, “Signature for predicting clinical outcome in human HER2+ breast cancer” (University Health Network, priority 2012, dated 2017):
“And” between values parts separate entries of the source, which are not always exact repeats. Equal values may be shown once. “Also recorded” adds a separate entry of the source.

Legend:
Type in all cases: in vivo, human
HER2+:ERα− BC patients [1] = assay: Retrospective analysis of metastasis post-surgery, trastuzumab-untreated versus chemo/trastuzumab-treated patients
Description: (§1) To begin to assess benefits from trastuzumab, we retrospectively determined the fraction of HER2^+:ERα^− patients that developed metastasis within 48 months post-surgery in the publicly available trastuzumab-untreated (n=33, FIG. 5C) versus neoadjuvant chemo/trastuzumab-treated patients (n=27, FIG. 6A). […] In contrast, for HTICS^+ patients, 12/18 (66%) relapsed in the chemo group compared to 5/18 (27%) in the chemo/trastuzumab group (FIG. 6B).
(§2) 2 datasets with pathological complete response (pCR) information were analyzed: GSE22358 and the MD Anderson cohorts. For pCR analysis, only samples with complete responses (pCR) were considered to be success and all other responses (partial, minor, near-complete) were regarded as failure. SSM for HTICS was calculated for each sample and number of patients with success/failure in HTICS^−/HTICS^+ groups was assessed by chi-square test to determine significance. For post-surgery analysis, such as % metastasis and overall survival/MFS Kaplan-Meier curves, 2 samples (one HER2^+:ERα^+, one HER2^+:ERα^−) were removed from the MD Anderson cohort due to a different adjuvant chemotherapy regimens. For % metastasis analysis, HER2^+:ERα^− samples from published cohorts were combined as Trastuzumab^− group and used to compare to the Trastuzumab-treated (Trastuzumab^+) patients from MD Anderson. Statistical significance was calculated by chi-square test.

HER2+:ERα− BC patients [2] = assay: Pathological complete response (pCR) after neoadjuvant chemotherapy plus trastuzumab, by HTICS status; details: GSE22358 plus MD Anderson dataset
Experimental: We next sought to determine their response to trastuzumab. Only one patient cohort (n=27) of neoadjuvant chemotherapy plus trastuzumab with microarray data and pathological complete response (pCR) is publicly available (GSE22358-(26)). We combined it with a new dataset with clinical data (pCR, MFS and OS) from 50 HER2^+ patients who were treated with neoadjuvant chemotherapy (fluorouracil/epirubicin or adriamycin/cyclophosphamide-taxol) plus trastuzumab at the MD Anderson Cancer Center and monitored in the past 7.5 years. This group of HER2^+ patients included 32 ERα^− and 18 ERα^+ tumors.
as §2, with “For % metastasis analysis, HER2^+:ERα^− samples from published cohorts were combined as Trastuzumab^− group and used to compare to the Trastuzumab-treated (Trastuzumab^+) patients from MD Anderson.” left out

HER2+:ERα− BC patients [3] = assay: Retrospective analysis of death / overall survival post-surgery, trastuzumab-untreated versus chemo/trastuzumab-treated patients; details: for deaths: MD Anderson, neoadjuvant chemotherapy plus trastuzumab, 7.5 years (90 months post-surgery)
Description: as §1, §2

trastuzumab
patients with metastases (HER2+:ERα− BC patients [1]; HTICS+ HER2+:ERα− patients, MD Anderson, neoadjuvant chemotherapy plus trastuzumab, 90 months post-surgery): 5 | fraction of patients that developed metastasis (relapsed) (HER2+:ERα− BC patients [1]; HTICS+ HER2+:ERα− patients, chemo/trastuzumab group, within 48 months post-surgery): 27% | reduction of metastasis / improvement of MFS (HER2+:ERα− BC patients [1]; HTICS+ HER2+:ERα− patients, chemo/trastuzumab versus trastuzumab-untreated (66%/27%)): 2.4 fold | patients with metastasis (HER2+:ERα− BC patients [1]; HTICS− HER2+:ERα− patients, MD Anderson, neoadjuvant chemotherapy plus trastuzumab, 90 months post-surgery): one | fraction of patients that developed metastasis (HER2+:ERα− BC patients [1]; HTICS− HER2+:ERα− patients, chemo plus trastuzumab group, within 48 months post-surgery): 11% | effect of trastuzumab on metastasis (MFS) (HER2+:ERα− BC patients [1]; HTICS− HER2+:ERα− patients, versus trastuzumab-negative group, 4-year period): did not have a significant effect; also recorded: insignificant | pathological complete response (pCR) (HER2+:ERα− BC patients [2]; HTICS+ HER2+:ERα− patients): 42% | pathological complete response (pCR) (HER2+:ERα− BC patients [2]; HTICS− HER2+:ERα− patients): 76% | deaths (HER2+:ERα− BC patients [3]; HTICS+ HER2+:ERα− patients): 5 | fraction of patients that died (HER2+:ERα− BC patients [3]; HTICS+ HER2+:ERα− patients, chemo/trastuzumab treated cohort, 4-years post-surgery): 22% | increase in OS (HER2+:ERα− BC patients [3]; HTICS+ HER2+:ERα− patients, chemo/trastuzumab versus trastuzumab-untreated): 2.95 fold and 2.9 fold | difference in OS, trastuzumab-untreated versus chemo/trastuzumab-treated (HER2+:ERα− BC patients [3]; HTICS− HER2+:ERα− patients, 4-year period): no statistically significant difference; also recorded: insignificant | deaths (HER2+:ERα− BC patients [3]; HTICS− HER2+:ERα− patients): none and no death occurred
